# Molecular target: human serum albumin (Homo sapiens, UniProt P02768)
# Protein sequences, listed by entry. Tags and fused reporters are not part of them. Residues count along the entry.
# UniProt P02768, 25-609: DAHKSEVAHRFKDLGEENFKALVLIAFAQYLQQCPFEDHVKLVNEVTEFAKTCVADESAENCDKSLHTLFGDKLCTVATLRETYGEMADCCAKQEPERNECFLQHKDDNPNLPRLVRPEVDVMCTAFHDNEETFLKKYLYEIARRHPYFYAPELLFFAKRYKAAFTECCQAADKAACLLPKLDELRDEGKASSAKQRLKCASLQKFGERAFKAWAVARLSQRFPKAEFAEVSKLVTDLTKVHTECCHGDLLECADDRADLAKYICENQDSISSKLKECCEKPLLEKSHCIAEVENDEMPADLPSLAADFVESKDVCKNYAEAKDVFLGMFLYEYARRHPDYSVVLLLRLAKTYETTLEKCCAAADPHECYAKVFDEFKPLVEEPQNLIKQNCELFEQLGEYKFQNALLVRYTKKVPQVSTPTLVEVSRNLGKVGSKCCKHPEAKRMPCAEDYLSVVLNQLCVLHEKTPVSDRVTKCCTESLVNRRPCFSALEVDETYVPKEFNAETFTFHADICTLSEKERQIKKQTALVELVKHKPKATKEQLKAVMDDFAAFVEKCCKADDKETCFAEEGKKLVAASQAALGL
# Experiment: X-ray crystallography of human serum albumin/drug complexes: binding location
# Details: Table II, Phase II; refined coordinates; listed residues within 5 Å of bound ligand
compound,measurement,value
NS(=O)(=O)c1cc2c(cc1Cl)N=CNS2(=O)=O [Chlorothiazide],Binding site of the Drug-Albumin Complex (site heading the list of contacting residues),"Site IB, R114, L115, R117, Y138, E141, I142, R145, H146, F149,"

# — US20070219767A1, “ATOMIC COORDINATES OF ALBUMIN DRUG COMPLEXES AND METHOD OF USE OF PHARMACEUTICAL DEVELOPMENT” (priority 2003, published 2007)
